The results in this text go back to patent US20200392084A1 (priority 2017, published 2020).

Data set [1] is described as follows: Dynamic Vapor Sorption (DVS).
Data set [2] in a line: Salt disproportionation studies. As to conditions: slurried in deionised water, ambient temperature, ca. 24 hrs.
Data set [3] in a line: Primary salt screen stability stress test 40° C./75% RH ca. 48 hours. The settings on record: primary screen solid from acetone.

For “sulfasalazine triethanolamine (1:1) salt”, in data set [1], the “XRPD pattern after DVS analysis” value is recorded as “unchanged” and the “hygroscopicity by DVS isotherm plot” value is recorded as “moderately hygroscopic”. Also, the DVS mass uptake in data set [1] (at 90% RH, 25° C., listed as salt from triethanolamine) is reported as 3.9%. Also, in data set [2], the “Salt disproportionation, XRPD” value was “Amorphous”. Besides, the “XRPD pattern after stability stress test” value in data set [3] is recorded as “same XRPD pattern”.
